Data taken from US20240299542A1, “NATURAL KILLER CELLS ENGINEERED TO REDUCE OR ELIMINATE CBL-B AND USES THEREOF” (City of Hope, priority 2021, published 2024).

How the values were obtained:
[1] = system: Cbl-b; test: Cbl-b protein by immunoblot after stimulation of primary human NK cells with cytokines or activating antibody; assay type: cell-based; details: 24 h cytokine stimulation, compared to resting NK cells without cytokines
Description: (FIG. 1A) Enriched primary human NK cells were treated with IL-2 (150 IU/ml), IL-7 (50 ng/ml), IL-12 (10 ng/ml), IL-18 (10 ng/ml), IL-21 (20 ng/ml) or IL-15 (20 ng/ml) for 24 h followed by immunoblot analysis (n=5 donors). […] (FIG. 1B) Enriched primary human NK cells were co-cultured with the K562 myeloid leukemia cell line (E/T ratio=10:1) for 24 h followed by immunoblot analysis. Summary data are from three independent experiments. (FIG. 1C) Primary human NK cells were treated with different concentrations of IL-15 for 24 h followed by immunoblot analysis (n=5 donors). […]
FIG. 6A Enriched primary human NK cells were cocultured with Molm-13 or MV4-11 leukemia cell lines (E/T ratio=10:1) for 24 h prior to assessment of Cbl-b by immunoblot analysis. […] FIG. 6C The expression of Cbl-b was assessed by qRT-PCR after primary human NK cells were treated with IL-15 (10 ng/ml) or IL-2 (150 IU/ml) at different time point. […] FIG. 6D The expression of Cbl-b was assessed by qRT-PCR after primary human NK cells were treated with IL-15 (10 ng/ml) or IL-2 (150 IU/ml) for 24 h. […] FIG. 6E The expression of Cbl-b was assessed by qRT-PCR after primary human NK cells were incubated with K562 cells (E/T ratio=10:1) for 24 h. […]
Immunoblotting. […] Densitometric analysis was performed to quantify intensity of gel bands with Image J (National Institutes of Health). […]

[2] = system: Cbl-b; test: Cbl-b mRNA by qRT-PCR after IL-15 or IL-2 treatment of primary human NK cells; assay type: cell-based; details: IL-15 (10 ng/ml) or IL-2 (150 IU/ml)

**Q.** With “IL-2: Recombinant human IL-2 protein obtained from National Institutes of Health” as the substance, how does the “expression of Cbl-b protein (ratio to β-actin)” value [1] read?
**A.** induced an increase in the expression of Cbl-b

**Q.** What about the “upregulation of Cbl-b mRNA at 24 h post stimulation” value ([2]; 24 h) of the same substance?
**A.** sustained

**Q.** And the “time of peak Cbl-b mRNA” value ([2]; compared to unstimulated NK cells)?
**A.** 4 h
